Reference: patent US11701406B2 (The Board of Trustees of the Leland Stanford Junior …, priority 2017, dated 2023)

System: hTregs (CD25+) vs hTeffs, STAT5 phosphorylation
Assay: STAT5 phosphorylation in Tregs vs Teffs / conventional CD4 T cells after IL-2
Type: cell-based, human
Settings: low dose IL-2 (1 ng/ml), Treg vs Teff cells
Text: FIGS. 1A-1B. […] In mouse Tregs, GRAIL ubiquitinates the same lysine (724), that must be neddylated on cullin5 to allow ubiquitin ligase activity of the SOCS3 CRL. By competing for post-translational modification of cullin5, GRAIL inhibits SOCS3 CRL activity and prolongs pJAK1 activity, thus prolonging pSTAT5 transcriptional activity and Treg function. […] A western blot of cell extracts from Treg or Teff cells following contacting in vitro with a low dose of IL-2. The blots were stained with an antibody specific for phosphorylated STAT5.
In humans and in an animal model for SLE, it is shown that there is a defect in this pathway.

## IL-2: cytokine interleukin 2; signals regulatory CD4 T cells via the high affinity IL-2 receptor
  pSTAT5 response (western blot kinetics): prolonged pSTAT5 response by the Treg cells relative to the Teff cells
